Test results published in ChEMBL document CHEMBL5214979 (J Med Chem, 2022).

Experiment: Efflux ratio of apparent permeability in human Caco-2 cells incubated for 2 hrs by LC-MS/MS analysis
Format: ADME, cell-based
Details: caco-2, 2 h

SMILES	Ratio
Cc1ccccc1Oc1cc(-n2c(=O)cc(C(F)(F)F)[nH]c2=O)c(F)cc1C#N	6.2
Cc1ccccc1Oc1cc(-n2c(=O)cc(C(F)(F)F)[nH]c2=O)c2ccccc2c1 [BAY-771]	0.62
